A selection: hits, their analogues and other compounds. The true share with any hit is near 2.3%.
miR-21 reporter = miR-21 reporter, rising signal; HeLa miR-21 FLuc reporter, luciferase, 48 h; Potency, µM (highest dose often 38.3 µM), for the others: top-dose reporter change, positive = more light; 340,000 tested, under 10 active; AID 2288; active = well fitted rising curve with a large enough effect; inconclusive = small, poorly fitted or top-dose-only effect; inactive = no such curve, though single readings can be large or run the other way;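 further: % of control where 0% means no effect; miR-21 action dims this reporter so a rising signal means less miR-21 action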
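HeLa miR-21-FLuc reporter line, endogenous miR-21; 2000 cells/well in DMEM/10% FBS; compound titration up to ~40uM final, 48 h, 37 degree Celsius; luciferase detection reagent, 15 min lysis, CCD luminescence.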
Nrf2 ARE act = activates Nrf2 signaling; actives 0.31% (n = 410,000); Potency, µM (top dose mostly 46.1 µM), for the others: top-dose activation, most hits filed as activators; AREc32 ARE-luciferase reporter (MCF7-derived line), luminescence, 24 h; also: potency is read from the fitted curve at half-maximal effect; % of control where 0% means no effect; nearly all actives have a fitted effect of over 65% in size
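Luminescent ARE reporter assay in AREc32_Fluc cells: overnight plating at 37 deg C, 24 hr compound incubation, Steady-Glo added, 30 min RT before reading.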
Mito fusion act = mitochondrial division inhibition or fusion activation; S. cerevisiae fusion-defective mutant growth rescue, CellTiterGlo 48 h; actives 0.23% (n = 320,000); AID 485298; Potency, µM (series often up to 46.1 µM), for inactives: at the top dose growth rescue (activation), most hits filed as activators; also: potency is read from the fitted curve at half-maximal effect; % of control where 0% means no effect; nearly all actives have a fitted effect of over 45% in size
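Compounds are tested for their ability to restore growth of mitochondrial fusion-defective yeast strains at non-permissive 37C in YPEG medium over 48 hours. Viability is quantified by luciferase luminescence.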
A549 tox = A549 cytotoxicity, counter-screen for Nrf2 inhibitors; actives 0.16% (n = 390,000); Potency, µM (top dose mostly 46 µM), for inactives: at the highest dose activity change, negative = cytotoxicity, most hits filed as inhibitors; A549 ARE-Fluc cells, CellTiter-Fluor viability, 18-24 h; AID 504648; also: potency is read from the fitted curve at half-maximal effect; % is scaled to controls: 0 for no effect and ±100 for the full control effect
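A549 ARE_Fluc cells in 5% FBS OPTI-MEM were exposed to compounds in concentration-response for 18-24 h at 37 deg C. Viability was read by CellTiter-Fluor fluorescence (Ex 405/Em 525) after 30 min, before the luciferase read.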
Nrf2 inh = Nrf2 pathway inhibition; actives 2.1% (n = 360,000); Potency, µM (top dose mostly 46 µM), inactives show at the highest dose activity change, negative = inhibition, actives largely listed as inhibitors; A549 ARE-Fluc reporter, luciferase luminescence, 18-24 h; AID 504444; also: potency is read from the fitted curve at half-maximal effect; % is scaled to controls: 0 for no effect and ±100 for the full control effect; nearly all actives have a fitted effect of over 60% in size
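Two sequential reads on A549 ARE_Fluc cells exposed to compound for 18-24 h: a CellTiter-Fluor fluorescence read for viability, then a luciferase luminescence read for Nrf2/ARE activity.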
GRP78 ERSR act = ER stress response induction in glioma. actives 0.02% (n = 420,000). Potency, µM, for inactives: top-dose activation, usual class: activators. AID 602332. U87-MG GRP78 promoter luciferase reporter, 16 h; also: potency is read from the fitted curve at half-maximal effect; series mostly up to about 76 µM; % of control where 0% means no effect; nearly all actives have a fitted effect of over 35% in size
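Stably transfected U87-MG human glioma cells carrying a GRP78-based luminescent sensor were seeded at 1000 cells/well, pin-dosed with compounds and incubated 16 h. Luciferase reagent was then added, and end-point luminescence was read after 10 min at room temperature.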
The depositor's hits bear a star; ? = inconclusive; · = no result given; ! = a repeat was not active; [ ] = another dose, or the depositor's remark. Unless noted, calls follow the shape of the dose curve; as a rule, active = well fitted curve in the direction sought with a large enough effect; inconclusive = small, poorly fitted or top-dose-only effect, or another doubt; inactive = no such curve, though single readings can be large; an effect the other way counts as inactive or inconclusive.

| cpd | Molecule | miR-21 reporter | Nrf2 ARE act | Mito fusion act |
| --- | --- | --- | --- | --- |
| 1 | COc1ccc(OC)c(-n2nnnc2SCC(=O)Nc2ccc(C(=O)N3CCCCC3)cc2)c1 | 12% | 2% | 1% |
| 2 | COc1ccc(NS(=O)(=O)c2ccc(Cl)s2)cn1 | 4% | 0% | 8% |
| 3 | Cc1cc(C)cc(N(C)S(=O)(=O)c2nnc(NC(=O)COc3ccc(C)c(C)c3)s2)c1 | 12% | 0% | · |
| 4 | CC(C)[C@@H](C(=O)NC1CC1)N1C(=O)N2CCc3c([nH]c4ccccc34)[C@@]2(C)C1=O | 3% | 8% | 5% |
| 5 | CN(Cc1cnc2nc(N)nc(N)c2n1)c1ccc(C(=O)N[C@@H](CCC(=O)O)C(=O)O)cc1 | · | 0% | -48% |
| 6 | CN(Cc1cnc2nc(N)nc(N)c2n1)c1ccc(C(=O)N[C@H](CCC(=O)O)C(=O)O)cc1 | · | · | · |
| 7 | Cc1nn(Cc2ccccc2)c(C)c1C(=O)OCC(=O)c1cc(C)n(CC(F)(F)F)c1C | 15% | 1% | 0% |
| 8 | Cc1cc(C(=O)COC(=O)c2ccc(NC(=O)CC#N)cc2)c(C)n1CC(F)(F)F | · | 3% | · |
| 9 | CCc1ccccc1NC(=O)CCS(=O)(=O)c1ccc(C)cc1 | 1% | -1% | 2% |
| 10 | COc1ccc(-c2cc(=O)c3c(OC)c(OC)c(OC)c(OC)c3o2)cc1OC | -2% | 9% | -1% |
| 11 | COc1ccc2c(=O)cc(-c3ccncc3)oc2c1OC | · | 5% | · |
| 12 | CC1CCCCN1CCCNC(=O)c1[nH]c2ccccc2c1Sc1ccc(Cl)cc1 (configuration not stated) | 2% | -4% | · |
| 13 | Cc1ccc2[nH]c(C)cc(=O)c2c1 | · | · | · |
| 14 | CCC(=O)N1CCc2cc(Br)cc(S(=O)(=O)CCC(=O)N3CCN(c4cccc(C)c4)C(C)C3)c21 (configuration not stated) | 15% | 7% | · |
| 15 | CCC(=O)N1CCc2cc(S(=O)(=O)CCC(=O)N3CCN(c4cccc(C)c4)C(C)C3)ccc21 (configuration not stated) | 11% | 3% | · |

| cpd | A549 tox | Nrf2 inh | GRP78 ERSR act |
| --- | --- | --- | --- |
| 1 | -13% | 18µM* | 2% |
| 2 | -10% | -9% | -6% |
| 3 | -17% | ? | -3% |
| 4 | 10% | 9% | -3% |
| 5 | -18% | 1.5µM*! | -4% |
| 6 | · | · | -4% |
| 7 | -9% | 16µM* | -8% |
| 8 | · | · | 1% |
| 9 | 7% | -2% | -5% |
| 10 | ? | 2% | 2% |
| 11 | -20% | 16µM* | -5% |
| 12 | -10% | -21% | -11% |
| 13 | · | · | 45µM* |
| 14 | ? | 5%[9.27 µM] | 1% |
| 15 | 6% | 21µM* | -3% |

Additional structures follow.
| cpd | Molecule | miR-21 reporter | Nrf2 ARE act | Mito fusion act |
| --- | --- | --- | --- | --- |
| 16 | COc1ccccc1C(=O)Nc1nc2ccccc2[nH]1 | ? | -2% | -36% |
| 17 | COc1cc(SC)ccc1C(=O)Nc1nc2ccccc2[nH]1 | ? | -2% | -54% |
| 18 | Cc1ccc(NC(=O)CCn2c(=O)c3cccn3c3ccccc32)c(C)c1 | -7% | 2% | -3% |
| 19 | Cc1cc(C)cc(NC(=O)CCn2c(=O)c3cccn3c3ccccc32)c1 | 13% | 3% | -2% |
| 20 | COc1ccc(CNC(=O)Cn2c(=O)c3cccn3c3ccccc32)cc1 | 15% | 0% | · |
| 21 | Cc1cccc(NC(=O)Cn2c(=O)c3cccn3c3ccccc32)c1C | 24% | -1% | · |
| 22 | OCC1(Cc2ccc(F)cc2F)CCCN(Cc2ccc(Cl)cc2)C1 (configuration not stated) | 0% | 0% | -8% |
| 23 | Nc1ccc(S(=O)(=O)N2CCCC2C(=O)O)cc1 (configuration not stated) | -1% | 0% | -4% |
| 24 | COc1ccc(S(=O)(=O)N(C)C[C@H]2Oc3ccc(NC(=O)Nc4ccc(C(F)(F)F)cc4)cc3C(=O)N([C@H](C)CO)C[C@@H]2C)cc1 | · | 0% | · |
| 25 | COc1ccc(NC(=O)Nc2ccc3c(c2)C(=O)N([C@H](C)CO)C[C@H](C)[C@@H](CN(C)S(=O)(=O)c2ccc(OC)cc2)O3)cc1 | · | 5% | · |
| 26 | C[C@@H]1CN([C@H](C)CO)C(=O)c2cc(NC(=O)Nc3ccc(C(F)(F)F)cc3)ccc2O[C@H]1CN(C)S(=O)(=O)c1ccccc1 | · | 0% | · |
| 27 | Cc1nnc(SCC(=O)NCCN2C(=O)CSC2=O)s1 | -3% | 0% | 1% |
| 28 | CCCCN(C(=O)CSc1nnc(-c2ccc(Cl)cc2)o1)c1c(N)n(CC(C)C)c(=O)[nH]c1=O | · | 0% | 7% |
| 29 | COC(=O)c1ccc2c(c1)N(Cc1cc(C)ccc1C)C(=O)c1ccccc1S2=O (configuration not stated) | -4% | · | -2% |
| 30 | Cc1ccc(C)c(CN2C(=O)c3ccccc3S(=O)c3ccc(C(=O)N(C)Cc4ccccc4)cc32)c1 (configuration not stated) | 17% | 0% | · |

| cpd | A549 tox | Nrf2 inh | GRP78 ERSR act |
| --- | --- | --- | --- |
| 16 | 2% | ? | -19% |
| 17 | -12% | 1.6µM* | -19% |
| 18 | 0% | -23% | -4% |
| 19 | -14% | 16µM* | -6% |
| 20 | 0% | 12µM* | -1% |
| 21 | -17% | 23µM* | -5% |
| 22 | ? | ? | -4% |
| 23 | 1% | 5% | -4% |
| 24 | ? | 23µM* | -2% |
| 25 | -4% | 5% | -1% |
| 26 | ? | 16µM* | -4% |
| 27 | -15% | ? | -16% |
| 28 | ? | 18µM* | -1% |
| 29 | · | · | · |
| 30 | -26% | 21µM* | -3% |

Next section; it opens with the four that closed the last part.
| cpd | Molecule | miR-21 reporter | Nrf2 ARE act | Mito fusion act |
| --- | --- | --- | --- | --- |
| 27 | Cc1nnc(SCC(=O)NCCN2C(=O)CSC2=O)s1 | -3% | 0% | 1% |
| 28 | CCCCN(C(=O)CSc1nnc(-c2ccc(Cl)cc2)o1)c1c(N)n(CC(C)C)c(=O)[nH]c1=O | · | 0% | 7% |
| 29 | COC(=O)c1ccc2c(c1)N(Cc1cc(C)ccc1C)C(=O)c1ccccc1S2=O (configuration not stated) | -4% | · | -2% |
| 30 | Cc1ccc(C)c(CN2C(=O)c3ccccc3S(=O)c3ccc(C(=O)N(C)Cc4ccccc4)cc32)c1 (configuration not stated) | 17% | 0% | · |
| 31 | CCC1CN(C(=O)NCc2ccc(C)cc2)c2ccccc2O1 (configuration not stated) | -3% | -1% | 3% |
| 32 | CCC1CN(C(=O)NCc2ccc(F)cc2)c2cc(C)ccc2O1 (configuration not stated) | ? | 0% | 23% |
| 33 | O=C(NCCN1CCOCC1)c1cc(-c2cccs2)on1 | -79% | ? | -1% |
| 34 | COCCN(C(=O)CCC(=O)Nc1cc(C)on1)C(C(=O)NC(C)(C)C)c1ccccc1Cl (configuration not stated) | 0% | 0% | 5% |
| 35 | Cc1c(C)c2cccnc2c2ncccc12 | · | 4% | 6% |
| 36 | COc1ccc(NC(=O)CSc2nc3nc(C)c(Cc4ccccc4Cl)c(C)n3n2)cc1OC | -6% | 0% | · |
| 37 | CNc1snc(C)c1C(=O)OC(C)C(=O)c1ccc(F)cc1 (configuration not stated) | · | 0% | 14% |
| 38 | CCc1ccc(-n2nnc(-c3nsc(NC(=O)c4ccccc4Cl)n3)c2C)cc1 | 12% | 5% | · |
| 39 | COc1ccccc1N1CCN(C(=O)C2CCCCN2S(=O)(=O)c2ccc(C)cc2)CC1 (configuration not stated) | 11% | 0% | -1% |
| 40 | O=C(/C=C/c1ccccc1Cl)Nc1nc(-c2cccs2)ns1 | -35% | 6.3µM* | · |

| cpd | A549 tox | Nrf2 inh | GRP78 ERSR act |
| --- | --- | --- | --- |
| 27 | -15% | ? | -16% |
| 28 | ? | 18µM* | -1% |
| 29 | · | · | · |
| 30 | -26% | 21µM* | -3% |
| 31 | 6% | ? | 1% |
| 32 | ? | 21µM* | -2% |
| 33 | -2% | ? | 11µM* |
| 34 | -2% | 4% | -1% |
| 35 | 5.8µM* | ? | -8% |
| 36 | 0% | · | -3% |
| 37 | -5% | 21µM* | -3% |
| 38 | -5% | 18µM* | -2% |
| 39 | 2% | -19% | 5% |
| 40 | -3% | 12% | 2% |

Assay outcomes from PubChem.
